Laboratory results taken from patent US20110275559A1, “Long-Acting Y2 and/or Y4 Receptor Agonists” (Novo Nordisk A/S, priority 2008, published 2011).
Marks after values point to notes of the source that are not given here.

How the values were obtained:
lean C57BL/6 mice = experiment: Acute food intake in fasted lean mice (BioDAQ, fasting-induced refeeding); type: in vivo; settings: for Mean cumulative food intake [g] / Mean cumulative food intake: Table 4
lean rats = experiment: Acute food intake in lean rats; type: in vivo

With `CC[C@H](C)[C@H](N)C(=O)N[C@@H](CCCCN)C(=O)N1CCC[C@H]1C(=O)N[C@@H](CCC(=O)O)C(=O)N[C@@H](C)C(=O)N1CCC[C@H]1C(=O)NCC(=O)N[C@@H](CCC(=O)O)C(=O)N[C@@H](CC(=O)O)C(=O)N[C@@H](C)C(=O)N[C@@H](CO)C(=O)N1CCC[C@H]1C(=O)N[C@@H](CCC(=O)O)C(=O)N[C@@H](CCC(=O)O)C(=O)N[C@@H](CC(C)C)C(=O)N[C@@H](CC(N)=O)C(=O)N[C@@H](CCCNC(=N)N)C(=O)N[C@@H](Cc1ccc(O)cc1)C(=O)N[C@@H](Cc1ccc(O)cc1)C(=O)N[C@@H](C)C(=O)N[C@@H](CO)C(=O)N[C@@H](CC(C)C)C(=O)N[C@@H](CCCNC(=N)N)C(=O)N[C@@H](Cc1c[nH]cn1)C(=O)N[C@@H](Cc1ccc(O)cc1)C(=O)N[C@@H](CC(C)C)C(=O)N[C@@H](CC(N)=O)C(=O)N[C@@H](CC(C)C)C(=O)N[C@H](C(=O)N[C@H](C(=O)N[C@@H](CCCNC(=N)N)C(=O)N[C@@H](CCC(N)=O)C(=O)N[C@@H](CCCNC(=N)N)C(=O)N[C@@H](Cc1ccc(O)cc1)C(N)=O)[C@@H](C)O)C(C)C` [SEQ ID NO: 1, hPYY(3-36)] the “time after administration at which the effect in reducing food intake has disappeared” value (lean C57BL/6 mice; Example 5, lean fasted-refed C57BL/6 mice, 1 μmol/kg s.c.) was 6 h, the “Mean cumulative food intake [g]” value (lean C57BL/6 mice; lean fasted-refed C57BL/6 mice, single 1.0 μmol/kg s.c., 1 hour after injection, vehicle 0.41) was 0.06* g and the “Mean cumulative food intake [g]” value (lean C57BL/6 mice; mice, 1.0 μmol/kg s.c., 2 hours after injection, vehicle 0.70) was 0.37* g. The “Mean cumulative food intake [g]” value (lean C57BL/6 mice; mice, 1.0 μmol/kg s.c., 3 hours after injection, vehicle 1.17) was 0.78* g, the “Mean cumulative food intake” value (lean C57BL/6 mice; mice, 1.0 μmol/kg s.c., 4 hours after injection, vehicle 1.48) was 1.18 g and the “Mean cumulative food intake” value (lean C57BL/6 mice; mice, 1.0 μmol/kg s.c., 6 hours after injection, vehicle 1.90) was 1.75 g. For the same compound, the “Mean cumulative food intake” value (lean C57BL/6 mice; mice, 1.0 μmol/kg s.c., 8 hours after injection, vehicle 2.42) was 2.23 g, the “Mean cumulative food intake” value (lean C57BL/6 mice; mice, 1.0 μmol/kg s.c., 12 hours after injection, vehicle 3.59) was 3.21 g and the “Mean cumulative food intake” value (lean C57BL/6 mice; mice, 1.0 μmol/kg s.c., 24 hours after injection, vehicle 4.41) was 4.14 g. For the same compound, the “effect on acute food intake compared to vehicle” value (lean rats; Study 8A, single s.c. injection, 1.0 μmol/kg) was “not statistically significant”, the “effect on food intake compared to vehicle” value (lean rats; Study 8B, 1.0 μmol/kg s.c.) was “no effect on food intake” and the “Mean cumulative food intake” value (lean rats; Table 11, Study 8A, single 1.0 μmol/kg s.c., 16 hours after injection, vehicle 24.46) was 22.74 g. For the same compound, the “Mean cumulative food intake” value (lean rats; Table 12, Study 8B, 1.0 μmol/kg s.c., 6 hours after injection, vehicle 12.65) was 10.72 g, the “Mean cumulative food intake” value (lean rats; Table 12, Study 8B, 1.0 μmol/kg s.c., 8 hours after injection, vehicle 14.57) was 14.36 g and the “Mean cumulative food intake” value (lean rats; Table 12, Study 8B, 1.0 μmol/kg s.c., 12 hours after injection, vehicle 24.14) was 23.86 g. For the same compound, the “Mean cumulative food intake” value (lean rats; Table 12, Study 8B, 1.0 μmol/kg s.c., 24 hours after injection, vehicle 29.68) was 28.88 g, the “Mean cumulative food intake” value (lean rats; Table 12, Study 8B, 1.0 μmol/kg s.c., 36 hours after injection, vehicle 51.26) was 52.97 g and the “Mean cumulative food intake” value (lean rats; Table 12, Study 8B, 1.0 μmol/kg s.c., 48 hours after injection, vehicle 56.08) was 58.53 g. For the same compound, the “Mean cumulative food intake” value (lean rats; Table 12, Study 8B, single 1.0 μmol/kg s.c., 4 hours after injection, vehicle 7.38) was 6.72 g.
